Structures are written as SMILES. Like-named read-outs stand apart in the source and are kept apart here.

The conditions of this data set: 0-120 h, 10 mg racemic warfarin.

Regarding `CC(=O)C[C@H](c1ccccc1)c1c(O)c2ccccc2oc1=O` [R-Warfarin], the “AUCt, mean (CV%)” value (OSP (+)) is on record as 27.8 (19.6) μg h/mL and the “AUCt, mean (CV%)” value (OSP (−)) is 26.2 (18.7) μg h/mL.
For `CC(=O)C[C@@H](c1ccccc1)c1c(O)c2ccccc2oc1=O` [S-Warfarin, S-warfarin] the same measures were 18.0 (28.3) μg h/mL and 17.2 (27.4) μg h/mL.

The record behind these values is paper PMC3742231 (International Journal of Molecular Sciences, 2013).
